By UniProt entry, the sequences of proteins in these tests, tags left out. Where a name states a change or a piece, a line headed by the entry shows the natural chain unless it says otherwise.
UniProt P53396: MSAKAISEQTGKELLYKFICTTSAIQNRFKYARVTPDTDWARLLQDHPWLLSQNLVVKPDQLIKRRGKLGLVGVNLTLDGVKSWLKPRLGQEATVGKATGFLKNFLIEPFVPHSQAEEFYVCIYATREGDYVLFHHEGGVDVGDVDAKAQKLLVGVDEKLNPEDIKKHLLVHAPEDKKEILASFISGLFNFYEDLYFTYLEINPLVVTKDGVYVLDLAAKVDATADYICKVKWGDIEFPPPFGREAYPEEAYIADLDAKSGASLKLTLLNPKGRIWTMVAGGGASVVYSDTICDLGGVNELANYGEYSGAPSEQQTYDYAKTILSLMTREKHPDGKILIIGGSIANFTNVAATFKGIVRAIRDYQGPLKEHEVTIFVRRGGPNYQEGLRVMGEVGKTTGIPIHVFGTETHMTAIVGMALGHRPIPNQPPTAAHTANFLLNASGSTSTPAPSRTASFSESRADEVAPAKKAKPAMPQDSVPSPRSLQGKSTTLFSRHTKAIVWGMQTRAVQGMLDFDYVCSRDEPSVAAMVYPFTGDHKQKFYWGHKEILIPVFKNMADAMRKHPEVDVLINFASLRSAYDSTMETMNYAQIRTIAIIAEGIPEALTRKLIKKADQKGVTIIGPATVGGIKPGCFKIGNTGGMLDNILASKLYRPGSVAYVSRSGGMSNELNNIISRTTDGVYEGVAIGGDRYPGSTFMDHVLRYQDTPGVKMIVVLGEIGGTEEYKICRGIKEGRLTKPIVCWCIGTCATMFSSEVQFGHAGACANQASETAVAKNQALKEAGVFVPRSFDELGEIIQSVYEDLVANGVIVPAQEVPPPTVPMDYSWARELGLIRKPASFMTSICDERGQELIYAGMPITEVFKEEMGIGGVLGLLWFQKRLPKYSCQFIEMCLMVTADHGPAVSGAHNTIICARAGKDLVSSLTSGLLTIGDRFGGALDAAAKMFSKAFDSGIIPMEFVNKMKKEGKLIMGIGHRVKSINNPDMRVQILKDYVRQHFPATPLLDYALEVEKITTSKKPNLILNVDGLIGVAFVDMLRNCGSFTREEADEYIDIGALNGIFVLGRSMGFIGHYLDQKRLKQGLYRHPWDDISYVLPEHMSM

According to US20220218659:

Target: Human ACLY, His-tagged, bacterially expressed and purified recombinant full length protein (UniProt P53396)

In the case of Active recombinant Src kinase, the number of ACLY tyrosine residues phosphorylated (in vitro kinase assay, phosphoproteomics) (tyrosine residues) is reported as 4.
